Here are results for 30 molecules from patent publication US20250195530A1, “POLQ INHIBITORS” (ASTRAZENECA AB, priority 2022, published 2025).

The chains behind the UniProt entries cited, without tags or fusion partners. Residues count along the entry.
UniProt O75417, 1780-2590: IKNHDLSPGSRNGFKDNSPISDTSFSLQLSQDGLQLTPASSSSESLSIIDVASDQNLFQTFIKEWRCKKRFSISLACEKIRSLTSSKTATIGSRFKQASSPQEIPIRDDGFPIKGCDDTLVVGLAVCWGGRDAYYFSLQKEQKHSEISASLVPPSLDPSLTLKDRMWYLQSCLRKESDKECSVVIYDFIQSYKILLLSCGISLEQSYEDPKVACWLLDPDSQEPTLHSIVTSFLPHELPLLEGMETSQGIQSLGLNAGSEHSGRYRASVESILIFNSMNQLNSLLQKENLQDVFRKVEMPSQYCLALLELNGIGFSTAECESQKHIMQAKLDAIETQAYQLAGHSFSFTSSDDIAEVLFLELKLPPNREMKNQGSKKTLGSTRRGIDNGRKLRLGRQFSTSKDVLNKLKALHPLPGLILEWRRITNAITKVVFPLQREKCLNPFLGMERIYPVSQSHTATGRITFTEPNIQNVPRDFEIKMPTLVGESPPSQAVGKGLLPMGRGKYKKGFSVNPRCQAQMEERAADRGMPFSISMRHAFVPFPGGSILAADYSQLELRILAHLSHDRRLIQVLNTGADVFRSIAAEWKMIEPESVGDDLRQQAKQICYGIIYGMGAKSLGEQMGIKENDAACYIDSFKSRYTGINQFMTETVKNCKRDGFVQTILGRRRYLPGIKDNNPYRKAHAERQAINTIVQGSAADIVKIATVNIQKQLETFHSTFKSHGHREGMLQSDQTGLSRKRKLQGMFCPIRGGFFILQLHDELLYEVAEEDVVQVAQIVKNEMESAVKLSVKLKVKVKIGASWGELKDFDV

For orientation: IC50 means the concentration needed to halve the response being measured. Read a low IC50 as higher potency.

In the assay the target is isolated polymerase domain (I1780-V2590) of DNA polymerase theta (Polθ) (Homo sapiens (Human), UniProt O75417). The assay can be described thus: biochemical.

The molecule `CN1CCCC1CCOc1ccc(-c2nc3c(OC4(C)CC4)ncnc3n2Cc2ccccc2)c(Cl)c1` (racemic) [Example D2, 9-benzyl-8-(2-chloro-4-(2-(1-methylpyrrolidin-2-yl)ethoxy)phenyl)-6-(1-methylcyclopropoxy)-9H-purine] showed an IC50 of 2 nM.
In the case of `Cc1ccnc(Cn2c(-c3ccc(C4CCNC4=O)cc3Cl)nc3c(OC4(C)CC4)ncnc32)c1` (racemic) [Example T176, 3-(3-chloro-4-(6-(1-methylcyclopropoxy)-9-((4-methylpyridin-2-yl)methyl)-9H-purin-8-yl)phenyl)pyrrolidin-2-one] it was 12.6 nM; in that of `Cc1ccnc(Cn2c(-c3ccc(OC4CCNC4=O)cc3Cl)nc3c(OC4(C)CC4)ncnc32)c1` (racemic) [Example T178, 3-(3-chloro-4-(6-(1-methylcyclopropoxy)-9-((4-methylpyridin-2-yl)methyl)-9H-purin-8-yl)phenoxy)pyrrolidin-2-one], 10 nM.
In the case of `Cc1ccnc(Cn2c(-c3ccc(OC4CNC(=O)C4)cc3Cl)nc3c(OC4(C)CC4)ncnc32)c1` (racemic) [Example T179, 4-(3-chloro-4-(6-(1-methylcyclopropoxy)-9-((4-methylpyridin-2-yl)methyl)-9H-purin-8-yl)phenoxy)pyrrolidin-2-one] it was 6.31 nM; in that of `Cc1ccnc(Cn2c(-c3ccc(OC4CNC(=O)OC4)cc3Cl)nc3c(OC4(C)CC4)ncnc32)c1` (racemic) [Example T187, 5-(3-chloro-4-(6-(1-methylcyclopropoxy)-9-((4-methylpyridin-2-yl)methyl)-9H-purin-8-yl)phenoxy)-1,3-oxazinan-2-one], 15.8 nM; in that of `CCC(C)c1ccc(-c2nc3c(OC4(C)CC4)ncnc3n2Cc2cc(C)ccn2)c(Cl)c1` (racemic) [Example T232, 8-(4-(sec-butyl)-2-chlorophenyl)-6-(1-methylcyclopropoxy)-9-((4-methylpyridin-2-yl)methyl)-9H-purine], 12.6 nM.
In the case of `CC(CCOc1ccc(-c2nc3c(OC4(C)CC4)ncnc3n2Cc2c(F)c(F)c(F)c(F)c2F)c(Cl)c1)C(=O)O` (racemic) [Example T251, 4-(3-chloro-4-(6-(1-methylcyclopropoxy)-9-((perfluorophenyl)methyl)-9H-purin-8-yl)phenoxy)-2-methylbutanoic acid] it was 39.8 nM.
In turn, `CC(CCOc1ccc(-c2nc3c(OC4(C#N)CC4)ncnc3n2Cc2cccc(Cl)c2)c(Cl)c1)C(=O)O` (racemic) [Example T252, 4-(3-chloro-4-(9-(3-chlorobenzyl)-6-(1-cyanocyclopropoxy)-9H-purin-8-yl)phenoxy)-2-methylbutanoic acid] had an IC50 of 10 nM.
Take `CC(CCOc1ccc(-c2nc3c(OC4(C)CC4)ncnc3n2Cc2cc(Br)ccc2F)c(Cl)c1)C(=O)O` (racemic) [Example T258, 4-(4-(9-(5-bromo-2-fluorobenzyl)-6-(1-methylcyclopropoxy)-9H-purin-8-yl)-3-chlorophenoxy)-2-methylbutanoic acid]: the IC50 is 3.98 nM.
The molecule `CC(CCOc1ccc(-c2nc3c(OC4(C)CC4)ncnc3n2Cc2c(Cl)cccc2Br)c(Cl)c1)C(=O)O` (racemic) [Example T259, 4-(4-(9-(2-bromo-6-chlorobenzyl)-6-(1-methylcyclopropoxy)-9H-purin-8-yl)-3-chlorophenoxy)-2-methylbutanoic acid] had an IC50 of 12.6 nM.
In the case of `CC(CCOc1ccc(-c2nc3c(OC4(C)CC4)ncnc3n2Cc2cc(F)cc(F)c2)c(Cl)c1)C(=O)O` (racemic) [Example T260, 4-(3-chloro-4-(9-(3,5-difluorobenzyl)-6-(1-methylcyclopropoxy)-9H-purin-8-yl)phenoxy)-2-methylbutanoic acid] it was 6.31 nM.
Under `CC(CCOc1ccc(-c2nc3c(OC4(C)CC4)ncnc3n2Cc2cccc(Cl)c2F)c(Cl)c1)C(=O)O` (racemic) [Example T267, 4-(3-chloro-4-(9-(3-chloro-2-fluorobenzyl)-6-(1-methylcyclopropoxy)-9H-purin-8-yl)phenoxy)-2-methylbutanoic acid] stands 6.31 nM.
Under `CC(CCOc1ccc(-c2nc3c(OC4(C)CC4)ncnc3n2Cc2cc(Cl)ccc2F)c(Cl)c1)C(=O)O` (racemic) [Example T268, 4-(3-chloro-4-(9-(5-chloro-2-fluorobenzyl)-6-(1-methylcyclopropoxy)-9H-purin-8-yl)phenoxy)-2-methylbutanoic acid] stands 6.31 nM.
In the case of `CC(CCOc1ccc(-c2nc3c(OC4(C)CC4)ncnc3n2Cc2ccc(F)c(Cl)c2)c(Cl)c1)C(=O)O` (racemic) [Example T269, 4-(3-chloro-4-(9-(3-chloro-4-fluorobenzyl)-6-(1-methylcyclopropoxy)-9H-purin-8-yl)phenoxy)-2-methylbutanoic acid], the IC50 is 7.94 nM.
Under `CC(CCOc1ccc(-c2nc3c(OC(C)(C)C(F)(F)F)ncnc3n2Cc2cccc(Cl)c2)c(Cl)c1)C(=O)O` (racemic) [Example T274, 4-(3-chloro-4-(9-(3-chlorobenzyl)-6-((1,1,1-trifluoro-2-methylpropan-2-yl)oxy)-9H-purin-8-yl)phenoxy)-2-methylbutanoic acid] stands 3.98 nM; under `CC(CCOc1ccc(-c2nc3c(OC4(C)CC4)ncnc3n2Cc2cc(Cl)cc(Cl)c2)c(Cl)c1)C(=O)O` (racemic) [Example T275, 4-(3-chloro-4-(9-(3,5-dichlorobenzyl)-6-(1-methylcyclopropoxy)-9H-purin-8-yl)phenoxy)-2-methylbutanoic acid], 6.31 nM; under `CC(CCOc1ccc(-c2nc3c(OC4(C)CC4)ncnc3n2Cc2cc(Cl)ccc2Cl)c(Cl)c1)C(=O)O` (racemic) [Example T276, 4-(3-chloro-4-(9-(2,5-dichlorobenzyl)-6-(1-methylcyclopropoxy)-9H-purin-8-yl)phenoxy)-2-methylbutanoic acid], 5.01 nM.
In the case of `CC(CCOc1ccc(-c2nc3c(OC4(C)CC4)ncnc3n2Cc2c(Cl)cccc2Cl)c(Cl)c1)C(=O)O` (racemic) [Example T277, 4-(3-chloro-4-(9-(2,6-dichlorobenzyl)-6-(1-methylcyclopropoxy)-9H-purin-8-yl)phenoxy)-2-methylbutanoic acid] it was 7.94 nM.
Under `CC(CCOc1ccc(-c2nc3c(OC4(C)CC4)ncnc3n2Cc2ccccc2Br)c(Cl)c1)C(=O)O` (racemic) [Example T278, 4-(4-(9-(2-bromobenzyl)-6-(1-methylcyclopropoxy)-9H-purin-8-yl)-3-chlorophenoxy)-2-methylbutanoic acid] stands 10 nM.
In turn, `CC(CCOc1ccc(-c2nc3c(OC4(C)CC4)ncnc3n2Cc2cccc(Br)c2)c(Cl)c1)C(=O)O` (racemic) [Example T279, 4-(4-(9-(3-bromobenzyl)-6-(1-methylcyclopropoxy)-9H-purin-8-yl)-3-chlorophenoxy)-2-methylbutanoic acid] gave an IC50 of 7.94 nM.
On to `CC(CCOc1ccc(-c2nc3c(OC4(C)CC4)ncnc3n2Cc2cccc(I)c2)c(Cl)c1)C(=O)O` (racemic) [Example T285, 4-(3-chloro-4-(9-(3-iodobenzyl)-6-(1-methylcyclopropoxy)-9H-purin-8-yl)phenoxy)-2-methylbutanoic acid], for which the IC50 was 7.94 nM.
Under `CC(CCc1ccc(-c2nc3c(OC4(C)CC4)ncnc3n2Cc2cccc(Cl)c2)c(Cl)c1)C(=O)O` (racemic) [Example T290, 4-(3-chloro-4-(9-(3-chlorobenzyl)-6-(1-methylcyclopropoxy)-9H-purin-8-yl)phenyl)-2-methylbutanoic acid] stands 6.31 nM.
As to `CC(CCOc1ccc(-c2nc3c(OC4(C)CC4)ncnc3n2Cc2cccc(Cl)c2)c(Cl)c1)C(=O)O` (racemic) [Example T291, 4-(3-chloro-4-(9-(3-chlorobenzyl)-6-(1-methylcyclopropoxy)-9H-purin-8-yl)phenoxy)-2-methylbutanoic acid], the IC50 is 6.31 nM.
In turn, `CC(CCOc1cccc(-c2nc3c(OC4(C)CC4)ncnc3n2Cc2cccc(Cl)c2)c1Cl)C(=O)O` (racemic) [Example T293, 4-(2-chloro-3-(9-(3-chlorobenzyl)-6-(1-methylcyclopropoxy)-9H-purin-8-yl)phenoxy)-2-methylbutanoic acid] gave a half-maximal inhibitory concentration (IC50) of 5.01 nM.
As to `CC(OCCOc1ccc(-c2nc3c(OC4(C)CC4)ncnc3n2Cc2cccc(Cl)c2)c(Cl)c1)C(=O)O` (racemic) [Example T305, rac-(R)-2-(2-(3-chloro-4-(9-(3-chlorobenzyl)-6-(1-methylcyclopropoxy)-9H-purin-8-yl)phenoxy)ethoxy)propanoic acid], the IC50 was 3.98 nM.
Under `Cc1ccnc(Cn2c(-c3ccc(N4CCC(O)CC4=O)cc3Cl)nc3c(OC4(C)CC4)ncnc32)c1` (racemic) [Example T321, 1-(3-chloro-4-(6-(1-methylcyclopropoxy)-9-((4-methylpyridin-2-yl)methyl)-9H-purin-8-yl)phenyl)-4-hydroxypiperidin-2-one] stands 15.8 nM.
`CC(CCOc1ccc(-c2nc3c(OC4(C)CC4)ncnc3n2Cc2cc(C(F)(F)F)ccc2F)c(Cl)c1)C(=O)O` (racemic) [Example T395, 4-(3-chloro-4-(9-(2-fluoro-5-(trifluoromethyl)benzyl)-6-(1-methylcyclopropoxy)-9H-purin-8-yl)phenoxy)-2-methylbutanoic acid] had an IC50 of 2.51 nM.
In the case of `CC(CCOc1ccc(-c2nc3c(OC4(C)CC4)ncnc3n2Cc2cccc(C#N)c2)c(Cl)c1)C(=O)O` (racemic) [Example T399, 4-(3-chloro-4-(9-(3-cyanobenzyl)-6-(1-methylcyclopropoxy)-9H-purin-8-yl)phenoxy)-2-methylbutanoic acid] it was 3.16 nM; in that of `CC(CCOc1ccc(-c2nc3c(OC4(C)CC4)ncnc3n2Cc2ccccc2C#N)c(Cl)c1)C(=O)O` (racemic) [Example T400, 4-(3-chloro-4-(9-(2-cyanobenzyl)-6-(1-methylcyclopropoxy)-9H-purin-8-yl)phenoxy)-2-methylbutanoic acid], 6.31 nM; in that of `Cc1ccc(F)c(Cn2c(-c3ccc(OCCC(C)C(=O)O)cc3Cl)nc3c(OC4(C)CC4)ncnc32)c1` (racemic) [Example T417, 4-(3-chloro-4-(9-(2-fluoro-5-methylbenzyl)-6-(1-methylcyclopropoxy)-9H-purin-8-yl)phenoxy)-2-methylbutanoic acid], 3.16 nM.
